The record followed here is ChEMBL document CHEMBL5543159, “Discovery of an Ortho-Substituted N-Cyclopropylmethyl-7α-phenyl-6,14-endoethano-tetrahydronorthebaine Derivative as a Selective and Potent Kappa Opioid Receptor Agonist with Subsided Sedative Effect” (2024).

Structures are written as SMILES.

In assay [1] the target is T1, Kappa-type opioid receptor (Homo sapiens, UniProt P41145). Put plainly: Displacement of [3H]U69593 from human KOR expressed in CHO cells membrane assessed as inhibition constant incubated for 1 hrs by liquid scintillation counting method.
Assay [2] concerns the target T2, Delta-type opioid receptor (Rattus norvegicus, UniProt P33533). The assay can be described thus: Displacement of [3H]DPDPE from rat DOR expressed in CHO cells membrane assessed as inhibition constant incubated for 1 hrs by liquid scintillation counting method.
For assay [3], the target named is T3, Mu-type opioid receptor (Rattus norvegicus, UniProt P33535). The assay can be described thus: Displacement of [3H]-DAMGO from rat MOR receptor expressed in CHO cell membrane assessed as inhibition constant incubated for 1 hrs by liquid scintillation counting method.
Assay [4] relates to Mus musculus. The assay can be described thus: Antinociceptive activity in ip dosed male Kunming mouse assessed as reduction in nociceptive response measured after 8 hrs by abdominal constriction test. The note with it: dose 0.25-1 mg/kg.
For assay [5], the system named is Mus musculus. The assay can be described thus: Antinociceptive activity in ip dosed male ICR mouse assessed as reduction in nociceptive response measured after 8 hrs by abdominal constriction test. Particulars: dose 0.25-1 mg/kg; call rule not given here.
Assay [6] deals with Mus musculus. The assay can be described thus: Antinociceptive activity in ip dosed female Kunming mouse assessed as reduction in nociceptive response measured after 8 hrs by hot plate test.
The test system of assay [7] is Mus musculus. The assay can be described thus: Antinociceptive activity in ip dosed female ICR mouse assessed as reduction in nociceptive response measured after 8 hrs by hot plate test.
In assay [8] the target is T2, Delta-type opioid receptor. The assay can be described thus: Agonist activity at rat DOR expressed in CHO cell membrane assessed as stimulation of [35S]-GTPgammaS binding incubated for 1 hr by liquid scintillation counting assay.
The target of assay [9] is T1, Kappa-type opioid receptor. The assay can be described thus: Agonist activity at human KOR expressed in CHO cell membrane assessed as stimulation of [35S]-GTPgammaS binding incubated for 1 hr by liquid scintillation counting assay.
For assay [10], the target named is T3, Mu-type opioid receptor. The assay can be described thus: Agonist activity at rat MOR expressed in CHO cell membrane assessed as stimulation of [35S]-GTPgammaS binding incubated for 1 hr by liquid scintillation counting assay.

Turning to `COc1ccc2c3c1O[C@H]1[C@@]4(OC)CC[C@@]5(C[C@@H]4c4ccccc4NC(=O)Cc4ccc(C)c(C)c4)[C@@H](C2)N(CC2CC2)CC[C@]315`, the Ki in assay [1] was over 5000 nM; in assay [2], 2470 nM; on Mu-type opioid receptor [3], over 5000 nM.

For `COc1ccc2c3c1O[C@H]1[C@@]4(OC)CC[C@@]5(C[C@@H]4c4ccccc4NCc4ccccc4)[C@@H](C2)N(CC2CC2)CC[C@]315` [listing 1 of 2 here], the ED50 came to 0.6 mg/kg with Mus musculus [4], 0.2 mg/kg in the assay on Mus musculus [5], 0.2 mg/kg in the assay on Mus musculus [6] and 0.3 mg/kg in the assay with Mus musculus [7].

For `COc1ccc2c3c1O[C@H]1[C@@]4(OC)CC[C@@]5(C[C@@H]4c4ccccc4NCc4ccccc4)[C@@H](C2)N(CC2CC2)CC[C@]315` [listing 2 of 2 here], the Ki in assay [1] was found to be 3.9 nM; in assay [2], 4200 nM; at Mu-type opioid receptor [3] it was 1050 nM. The EC50 in assay [8] worked out at 1650 nM; in [9], 3.4 nM; at Mu-type opioid receptor [10], 701 nM.

Turning to `COc1ccc(CNc2ccccc2[C@H]2C[C@@]34CC[C@]2(OC)[C@@H]2Oc5c(OC)ccc6c5[C@@]23CCN(CC2CC2)[C@@H]4C6)cc1`, the Ki is 126 nM in assay [1], over 5000 nM in [2] and 650 nM at Mu-type opioid receptor [3].

As to `COc1ccc2c3c1O[C@H]1[C@@]4(OC)CC[C@@]5(C[C@@H]4c4ccccc4NCC4CC4)[C@@H](C2)N(CC2CC2)CC[C@]315`, the Ki is 218 nM in assay [1], over 5000 nM in assay [2] and 4530 nM on Mu-type opioid receptor [3].

As for `COc1ccc2c3c1O[C@H]1[C@@]4(OC)CC[C@@]5(C[C@@H]4c4ccccc4NC(=O)Cc4ccccc4)[C@@H](C2)N(CC2CC2)CC[C@]315`, the Ki in [1] is 71.6 nM; in assay [2], 326 nM; on Mu-type opioid receptor [3], 167 nM. Besides, the EC50 in assay [8] was 448 nM; in assay [9], 289 nM; on Mu-type opioid receptor [10], “Not Active”.

Consider `COc1ccc2c3c1O[C@H]1[C@@]4(OC)CC[C@@]5(C[C@@H]4c4ccccc4NCC4CCN(C(=O)OC(C)(C)C)CC4)[C@@H](C2)N(CC2CC2)CC[C@]315`, for which the Ki in assay [1] was 1770 nM; in assay [2], over 5000 nM; on Mu-type opioid receptor [3], over 5000 nM.

`COc1ccc2c3c1O[C@H]1[C@@]4(OC)CC[C@@]5(C[C@@H]4c4ccccc4NC(=O)c4ccccc4)[C@@H](C2)N(CC2CC2)CC[C@]315`: the Ki was 18.9 nM in assay [1], over 5000 nM in [2] and 868 nM on Mu-type opioid receptor [3]. Also, the EC50 in [8] was over 10000 nM; in assay [9], 18 nM; at Mu-type opioid receptor [10], 1080 nM.

For `COc1ccc2c3c1O[C@H]1[C@@]4(OC)CC[C@@]5(C[C@@H]4c4ccccc4N)[C@@H](C2)N(CC2CC2)CC[C@]315`, the Ki amounted to 54.6 nM in assay [1], 3840 nM in assay [2] and 206 nM on Mu-type opioid receptor [3].

On to `COc1ccc2c3c1O[C@H]1[C@@]4(OC)CC[C@@]5(C[C@@H]4c4ccccc4NC(=O)c4ccc6[nH]ccc6c4)[C@@H](C2)N(CC2CC2)CC[C@]315`, for which the Ki is 2060 nM in [1], over 10000 nM in assay [2] and over 10000 nM at Mu-type opioid receptor [3].

Take `COc1ccc2c3c1O[C@H]1[C@@]4(OC)CC[C@@]5(C[C@@H]4c4ccccc4NCC4CCCC4)[C@@H](C2)N(CC2CC2)CC[C@]315`: the Ki is 130 nM in assay [1], over 5000 nM in [2] and over 5000 nM on Mu-type opioid receptor [3].

`COc1ccc2c3c1O[C@H]1[C@@]4(OC)CC[C@@]5(C[C@@H]4c4ccccc4NC(=O)c4ccccc4O)[C@@H](C2)N(CC2CC2)CC[C@]315`: the Ki was 221 nM in assay [1], 1170 nM in assay [2] and 682 nM on Mu-type opioid receptor [3].

As to `COc1ccc2c3c1O[C@H]1[C@@]4(OC)CC[C@@]5(C[C@@H]4c4ccc(NC(=O)c6ccccc6)cc4)[C@@H](C2)N(CC2CC2)CC[C@]315`, the 50% effective dose (ED50) in the assay with Mus musculus [4] was 0.1 mg/kg; in the assay with Mus musculus [6], 0.2 mg/kg.

For the molecule `COc1ccc2c3c1O[C@H]1[C@@]4(OC)CC[C@@]5(C[C@@H]4c4ccccc4N(C)Cc4ccc(C(F)(F)F)cc4)[C@@H](C2)N(CC2CC2)CC[C@]315`, the Ki came out at 191 nM in assay [1], 3760 nM in assay [2] and 605 nM on Mu-type opioid receptor [3].

For `COc1ccc(CNc2cccc([C@H]3C[C@@]45CC[C@]3(OC)[C@@H]3Oc6c(OC)ccc7c6[C@@]34CCN(CC3CC3)[C@@H]5C7)c2)cc1`, the values for the ED50 in the assay on Mus musculus [4] and in the assay with Mus musculus [6] were 0.2 mg/kg and 0.1 mg/kg, respectively.

Consider `COc1ccc2c3c1O[C@H]1[C@@]4(OC)CC[C@@]5(C[C@@H]4c4ccccc4NC(=O)c4ccc(C)c(C)c4)[C@@H](C2)N(CC2CC2)CC[C@]315`, for which the Ki is 53.5 nM in assay [1], over 5000 nM in [2] and 787 nM on Mu-type opioid receptor [3].

Turning to `COc1ccc2cc([C@H](C)C(=O)Nc3ccccc3[C@H]3C[C@@]45CC[C@]3(OC)[C@@H]3Oc6c(OC)ccc7c6[C@@]34CCN(CC3CC3)[C@@H]5C7)ccc2c1`, the Ki (in assay [1]; in [2]; at Mu-type opioid receptor [3]) was over 10000 nM throughout.

As for `COc1ccc2c3c1O[C@H]1[C@@]4(OC)CC[C@@]5(C[C@@H]4c4ccccc4NC(=O)OCc4ccccc4)[C@@H](C2)N(CC2CC2)CC[C@]315`, the figures for the Ki (in assay [1]; in [2]; at Mu-type opioid receptor [3]) were 182 nM, 4100 nM and 532 nM, respectively.

With `COc1ccc2c3c1O[C@H]1[C@@]4(OC)CC[C@@]5(C[C@@H]4c4ccccc4NC(=O)C4CC4)[C@@H](C2)N(CC2CC2)CC[C@]315`, the Ki (in assay [1]; in assay [2]; at Mu-type opioid receptor [3]) was over 5000 nM each time.

Consider `COc1ccc2c3c1O[C@H]1[C@@]4(OC)CC[C@@]5(C[C@@H]4c4ccccc4NC(=O)c4ccc(Cl)c(Cl)c4)[C@@H](C2)N(CC2CC2)CC[C@]315`, for which the Ki in assay [1] was determined as 1020 nM; in assay [2], 1510 nM; at Mu-type opioid receptor [3], 674 nM.

Take `COc1ccc2c3c1O[C@H]1[C@@]4(OC)CC[C@@]5(C[C@@H]4c4ccccc4NC(=O)C(C)(C)C)[C@@H](C2)N(CC2CC2)CC[C@]315`: the Ki in assay [1] was over 5000 nM; in assay [2], 552 nM; on Mu-type opioid receptor [3], 783 nM.
